Assay outcomes (PubChem)
In the library only some 1.6% were active in any assay of this set; here they are far more common.
Vif inh: HIV Vif self-association inhibitors, primary screen, imaging, HEK293T, single point. 340,000 tested, 0.35% active. inhibition, % at 7.49 µM. HEK293T cells, Vif self-association by quenched fluorescence, 24 h; in the data active = inhibition above about 50%, passing the limit was not always enough; inconclusive = no clear call, values can overlap the other calls; inactive = below about 31%
PglD DTNB: C. jejuni PglD acetyltransferase inhibitors, primary screen, biochemical, DTNB colorimetric, single point; purified PglD enzyme, DTNB colorimetric CoA detection; inhibition, % at 12.5 µM; 360,000 tested, 0.098% active; AID 602405, 2012; in the data active = inhibition above about 16%, passing the limit was not always enough; inconclusive = no clear call, values can overlap the other calls
CAL PDZ FP-1: untagged CAL PDZ binding inhibitors, primary screen, biochemical, fluorescence polarization, HTS; Golgi-associated PDZ and coiled-coil motif-containing protein (Homo sapiens), Q9HD26; purified CAL PDZ, TMR-peptide fluorescence polarization, 1 h; inhibition, % at 24.9 µM; 300,000 tested, 0.92% active; AID 602252, 2012;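 active = mean inhibition of at least 30% with at least half of replicates also reaching 30%; inconclusive = no clear call, values can overlap the other calls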;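 note: 0% = DMSO neutral control and 100% = excess unlabeled competitor peptide PRC23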
UUG fidelity: modulators of yeast start codon fidelity, primary screen, whole organism, S. cerevisiae, single point, plate reader; S. cerevisiae UUG-firefly luciferase reporter, luminescence/redox ratio; activity score, % at 18.7 µM; 0.13% of 350,000 active; AID 602363, 2012;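 active = replicate mean at a twofold rise or more, about +100% in these data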;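 also: firefly luciferase made from a UUG start codon reports start codon fidelity; reporter light over untreated wells divided by growth signal over untreated wells; some hits fall short of that in this replicate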
CAL PDZ FP-2: CAL PDZ peptide-binding inhibitors, primary screen, biochemical, fluorescence polarization, Cer-tagged CAL PDZ, HTS | Golgi-associated PDZ and coiled-coil motif-containing protein (Homo sapiens), Q9HD26 | purified CAL PDZ, TMR-peptide fluorescence polarization, 1 h | inhibition, % at 20 µM | 330,000 tested, 0.02% active;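 active = highest replicate inhibition of at least 40%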;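 note: plate controls were DMSO neutral control wells for no effect and unlabeled competitor peptide control wells for full effect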
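material = purified tagged CAL PDZ domain construct (CerCALP) | compound dosing = 20 µM, one dose | times = 1 h at RT | measured by = fluorescence polarization from S- and P-plane intensities, G-factor corrected | read-out = inhibition from polarization loss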
ARNT TACC3 PPI: disruptors of ARNT/TACC3 protein interaction, primary screen, biochemical, AlphaScreen, single concentration | AlphaScreen His-ARNT PAS-B/GST-TACC3 binding, luminescence; TACC3 fragment carries E629A point mutation | inhibition, % at 9.99 µM | 390,000 tested, 0.66% active | AID 623870, 2012;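 active = mean inhibition of replicates at least 50% and at least half of replicates each reaching 50%; inconclusive = half or more replicates reach 50% but mean below 50%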;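 note: 0% = complete ARNT plus TACC3 wells and 100% = ARNT alone without TACC3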
Numbers without * were called inactive.

How did C[C@H](CO)N1C[C@H](C)[C@H](CN(C)Cc2ccc(Cl)c(Cl)c2)OCCCC[C@H](C)Oc2ccc(NC(=O)C3CCCCC3)cc2C1=O do in these assays?
PglD DTNB: -2.6; UUG fidelity: 8.2; ARNT TACC3 PPI: -4.3

Results for CC(=O)c1ccc(NC(=O)c2noc3c2CCC3)cc1 ?
Vif inh: 6.2; PglD DTNB: 3.0; CAL PDZ FP-1: 68.3*; UUG fidelity: -19.8; ARNT TACC3 PPI: -4.6

What do the screens show for `COc1ccc(NC(=O)c2noc3c2CCC3)cc1`?
Vif inh: inconclusive; PglD DTNB: 1.6; CAL PDZ FP-1: -5.0; UUG fidelity: -49.4; ARNT TACC3 PPI: -2.9

Results for CCCNC(=O)C[C@H]1CC[C@@H]2[C@@H](COc3ccc(NC(=O)Nc4ccccc4)cc3C(=O)N2C)O1 ?
PglD DTNB: 0.8; UUG fidelity: 10.6; ARNT TACC3 PPI: 7.1

How did CCC(=O)N1[C@@H]2c3ccc(-c4ccccc4)c(=O)n3C[C@@H]2[C@@H](CO)[C@@H]1C(=O)N(C)C do in these assays?
PglD DTNB: 3.8

What do the screens show for `CCOP(=O)(/C(C#N)=C(/O)c1ccccc1)c1ccccc1` (stereo not drawn)?
Vif inh: -5.5; CAL PDZ FP-1: 122.5*; CAL PDZ FP-2: -0.3; ARNT TACC3 PPI: -7.3

How did COc1ccc2nc3ccccc3nc2c1NC(=O)c1ccc(Cl)cc1 do in these assays?
Vif inh: 105.7*; PglD DTNB: -1.6; CAL PDZ FP-1: 0.2; UUG fidelity: -0.5; CAL PDZ FP-2: 0.4; ARNT TACC3 PPI: -0.3

How did COc1ccc2nc3ccccc3nc2c1NC(=O)c1ccc(Br)cc1 do in these assays?
Vif inh: 6.9; PglD DTNB: 0.5; CAL PDZ FP-1: -1.4; UUG fidelity: -12.7; CAL PDZ FP-2: -0.7; ARNT TACC3 PPI: -22.4

What do the screens show for `COc1cc(NCCCCCCN)c2ncccc2c1OC`?
Vif inh: 4.6; CAL PDZ FP-1: 0.1; CAL PDZ FP-2: 1.2; ARNT TACC3 PPI: 51.5*

What do the screens show for `COc1cc(NC(C)CCCNC(C)C)c2ncccc2c1OC` (stereo not drawn)?
Vif inh: 4.0; PglD DTNB: -3.2; CAL PDZ FP-1: -0.1; UUG fidelity: -18.2; CAL PDZ FP-2: 1.1; ARNT TACC3 PPI: 59.4*

What do the screens show for `O=C(N[C@@H]1CC[C@H](CC(=O)N2CCCCC2)O[C@H]1CO)c1ccc2c(c1)OCO2`?
PglD DTNB: -2.0; UUG fidelity: -11.1; ARNT TACC3 PPI: -0.8

Results for O=C(COC(=O)COc1ccc(Br)cc1)NCC1CCCO1 (stereo not drawn) ?
Vif inh: 15.3; PglD DTNB: -4.7; CAL PDZ FP-1: 90.7*; UUG fidelity: -18.9; CAL PDZ FP-2: 0.0; ARNT TACC3 PPI: -1.1

What do the screens show for `Cc1cc(Cl)n2c(nc3cc(F)c(F)cc32)c1C#N`?
Vif inh: 77.3*; CAL PDZ FP-1: 3.2; CAL PDZ FP-2: -1.0; ARNT TACC3 PPI: 1.9

Results for Cc1cc(C)n2c(=O)c3ccc(Cl)cc3nc2c1C#N ?
Vif inh: -6.8; CAL PDZ FP-1: 2.9; CAL PDZ FP-2: -2.9; ARNT TACC3 PPI: -8.3

Results for C[C@@H]1CN([C@H](C)CO)C(=O)Cc2cc(NS(=O)(=O)c3cccs3)ccc2O[C@@H]1CN(C)S(=O)(=O)c1cn(C)cn1 ?
PglD DTNB: 2.6; UUG fidelity: -4.9

What do the screens show for `COc1cc(CNCc2ccccn2)ccc1OCC(=O)NC(C)(C)C`?
Vif inh: -5.7; CAL PDZ FP-1: -2.5; CAL PDZ FP-2: -0.7; ARNT TACC3 PPI: 82.0*

What do the screens show for `CCOc1c(Cl)cc(CNCc2ccccn2)cc1OC`?
Vif inh: -3.9; PglD DTNB: -1.0; CAL PDZ FP-1: -2.7; UUG fidelity: -21.2; CAL PDZ FP-2: -3.5; ARNT TACC3 PPI: 48.7*

What do the screens show for `COc1ccc(CN2CCNC(=O)C2CC(=O)NC2CCCCCCC2)cc1OC` (stereo not drawn)?
Vif inh: -7.2; PglD DTNB: -7.1; CAL PDZ FP-1: 54.9*; UUG fidelity: -2.5; CAL PDZ FP-2: -0.4; ARNT TACC3 PPI: 2.0

Results for COc1ccc(CN2CCNC(=O)C2CC(=O)NC2CCCC2)cc1OC (stereo not drawn) ?
Vif inh: -4.2; PglD DTNB: 12.8; CAL PDZ FP-1: -3.0; UUG fidelity: -27.8; CAL PDZ FP-2: 0.8; ARNT TACC3 PPI: 0.2

What do the screens show for `COc1cc(CNCc2cccnc2)ccc1OCC(=O)NC(C)(C)C`?
Vif inh: 4.0; CAL PDZ FP-1: 0.0; CAL PDZ FP-2: -2.6; ARNT TACC3 PPI: -3.6

2 records picked at random from the list so far:
What do the screens show for `Cc1cc(Cl)n2c(nc3cc(F)c(F)cc32)c1C#N`?
Vif inh: 77.3*; CAL PDZ FP-1: 3.2; CAL PDZ FP-2: -1.0; ARNT TACC3 PPI: 1.9

What do the screens show for `COc1cc(CNCc2cccnc2)ccc1OCC(=O)NC(C)(C)C`?
Vif inh: 4.0; CAL PDZ FP-1: 0.0; CAL PDZ FP-2: -2.6; ARNT TACC3 PPI: -3.6

Returning to the listing with the two entries that preceded the break.
Results for COc1ccc(CN2CCNC(=O)C2CC(=O)NC2CCCC2)cc1OC (stereo not drawn) ?
Vif inh: -4.2; PglD DTNB: 12.8; CAL PDZ FP-1: -3.0; UUG fidelity: -27.8; CAL PDZ FP-2: 0.8; ARNT TACC3 PPI: 0.2

What do the screens show for `COc1cc(CNCc2cccnc2)ccc1OCC(=O)NC(C)(C)C`?
Vif inh: 4.0; CAL PDZ FP-1: 0.0; CAL PDZ FP-2: -2.6; ARNT TACC3 PPI: -3.6

Results for COc1cc(CNCc2ccccn2)ccc1OCC(=O)NC1CCCCC1 ?
Vif inh: 3.6; CAL PDZ FP-1: -0.7; CAL PDZ FP-2: -0.8; ARNT TACC3 PPI: 47.3*

Results for CCCNC(=O)C[C@H]1CC[C@@H]2[C@H](COC[C@@H](O)CN2C(=O)c2cc(Cl)cc(Cl)c2)O1 ?
PglD DTNB: -6.8; UUG fidelity: -3.1; ARNT TACC3 PPI: 3.0

What do the screens show for `Cc1cccc(Nc2nc(-c3ccc(O)c(O)c3)cs2)n1`?
Vif inh: 63.9*; PglD DTNB: -6.4; CAL PDZ FP-1: -0.8; UUG fidelity: -4.8; CAL PDZ FP-2: -0.2; ARNT TACC3 PPI: 10.4

What do the screens show for `COc1ccccc1-c1ccc2c(c1)[C@@H]1[C@@H](CCN1S(=O)(=O)c1ccccc1F)[C@H](CO)N2`?
PglD DTNB: 0.7; UUG fidelity: -15.6; ARNT TACC3 PPI: 24.7

How did C[N+](C)(C)CC(O)CC(=O)O (stereo not drawn) do in these assays?
Vif inh: 116.1*; PglD DTNB: 0.4; CAL PDZ FP-1: -2.8; UUG fidelity: -18.9; CAL PDZ FP-2: 0.6; ARNT TACC3 PPI: -2.3

How did C[C@@H]1CCCCO[C@@H](CN(C)C(=O)Cc2ccccc2)[C@@H](C)CN([C@@H](C)CO)C(=O)c2cc(NS(=O)(=O)c3ccc(F)cc3)ccc2O1 do in these assays?
PglD DTNB: 0.5; UUG fidelity: -6.9; ARNT TACC3 PPI: -2.7

Results for Cc1noc(C)c1NC(=O)Nc1cccc2c1O[C@@H](CN(C)C(=O)Nc1cccc3ccccc13)[C@@H](C)CN([C@@H](C)CO)C2=O ?
PglD DTNB: 0.2; UUG fidelity: -2.4; ARNT TACC3 PPI: 8.5

How did COc1ccccc1NC(=O)Cn1cnc2c(cnn2-c2ccccc2)c1=O do in these assays?
Vif inh: -11.3; PglD DTNB: -2.3; CAL PDZ FP-1: 57.4*; UUG fidelity: -13.8; CAL PDZ FP-2: -1.0; ARNT TACC3 PPI: -6.8
